Test results taken from US20210009674A1.

Key:
Experiment in all cases: cell-based or functional assay
[1] = target: IL-1β from rhesus monkey (rhesus monkey) (UniProt P48090)
[2] = target: TNFα from rhesus monkey (rhesus monkey) (UniProt P48094)
[3] = target: recombinant human IL-1β (human) (UniProt P01584)
[4] = target: IL-1β from mouse (mouse) (UniProt P10749)

anti-TNFα and IL-1β bispecific IgG1 antibody TAVO3334×5332 (bispecific antibody)
< 2: inhibition of IL-1β-induced IL-6 release from MRC-5 cells (1 ng/ml IL-1β) (fold less potency compared to TAVO5332) [1] | neutralization of TNFα cytotoxicity to WEHI cells (MTT assay, 10 ng/mL TNFα) (fold less potency relative to TAVO3334) [2] | inhibition of IL-1β-induced IL-6 release from MRC-5 cells (1 ng/ml IL-1β) (fold less potency compared to TAVO5332) [3] | inhibition of IL-1β-induced IL-6 release from MRC-5 cells (10 ng/ml IL-1β) (fold less potency compared to TAVO5332) [4]
